Measurements reported in patent US11660301B2, “Combination of ATR kinase inhibitors with PARP inhibitors” (Bayer Pharma Aktiengesellschaft, priority 2017, dated 2023).
Marks after values point to notes of the source that are not given here.

Columns and labels:
MDA-MB-436 = experiment: In vitro anti-proliferation (Cell Titre-Glo), MDA-MB-436; format: cell-based; conditions: Homo sapiens, MDA-MB-436, 96 h, read-out: IC50, mono
Procedure: (§1) Tumor cells (Table 1) were propagated in a humidified 37° C. incubator in their respective growth medium supplemented 10% fetal calf serum. […] Test compounds were added to the wells using a Tecan-HP Digital Dispenser. After 96 hours of incubation cell viability was assessed with the Cell Titre-Glo Luminescent Cell Viability Assay (Promega).

[1] = system: human 22Rv1 prostate cancer xenograft; experiment: 22Rv1 prostate cancer xenograft model; conditions: mouse, in vivo
[2] = system: human 22Rv1 prostate cancer xenograft; conditions: mouse, in vivo
IGR-OV-1 = experiment: In vitro anti-proliferation (Cell Titre-Glo), IGR-OV-1; format: cell-based; conditions: Homo sapiens, IGROV-1, 96 h, read-out: IC50, mono
Procedure: as §1

[3] = system: human MDA-MB-436 breast cancer xenograft; conditions: mouse, in vivo
NCI-H460 = experiment: In vitro anti-proliferation (Cell Titre-Glo), NCI-H460; format: cell-based; conditions: Homo sapiens, NCI-H460, 96 h, read-out: IC50, mono
Procedure: as §1

[4] = system: human MDA-MB-436 breast cancer xenograft; experiment: MDA-MB-436 breast cancer xenograft model; conditions: mouse, in vivo
HT-144 = experiment: In vitro anti-proliferation (Cell Titre-Glo), HT-144; format: cell-based; conditions: Homo sapiens, HT-144, 96 h, read-out: IC50, mono
Procedure: as §1

In the case of `C[C@@H]1COCCN1c1cc(-c2ccnn2C)c2ccnc(-c3ccn[nH]3)c2n1` [Compound A, 2-[(3R)-3-methylmorpholin-4-yl]-4-(1-methyl-1H-pyrazol-5-yl)-8-(1H-pyrazol-5-yl)-1,7-naphthyridine], the IC50 (MDA-MB-436) is reported as 100 nM, the T/C [1] is reported as 0.64* and the anti-tumor efficacy [1] is reported as “weak but statistically significant improved anti-tumor efficacy”. The “Max. weight loss (%)” value [2] was −3%, the IC50 (IGR-OV-1) was 96 nM and the “Max. weight loss (%)” value [3] was −6%. For the same compound, the IC50 (NCI-H460) was 70 nM, the T/C [4] was 0.57 and the anti-tumor efficacy [4] was “moderate anti-tumor efficacy”. It also gave an IC50 (HT-144) of 30 nM.
